# scFv variants of Ab-14 (light chain) against a SARS-CoV-2 spike peptide

Target: peptide PDVDLGDISGINAS, taken from heptad repeat 2 (HR2) of SARS-CoV-2 spike.

Parent: Ab-14, a human scFv built as VH, the linker GGGGSGGGGSGGGGS, VL. Only the CDRs of the light chain vary.
VH: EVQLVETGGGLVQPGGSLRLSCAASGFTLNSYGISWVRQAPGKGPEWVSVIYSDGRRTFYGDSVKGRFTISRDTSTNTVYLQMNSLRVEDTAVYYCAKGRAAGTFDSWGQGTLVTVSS
VL: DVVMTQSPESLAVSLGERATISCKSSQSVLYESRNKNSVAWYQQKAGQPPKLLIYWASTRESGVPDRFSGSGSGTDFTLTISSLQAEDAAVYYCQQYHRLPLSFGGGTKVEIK

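Variants in AAYL50 differ from the parent at up to three CDR positions; double and triple changes were sampled at random. The assay is AlphaSeq: two haploid yeast populations carry antibody and antigen on their surface. After mating in shaken culture at 30 °C for 16 h, diploids were selected and their barcode pairs sequenced. Scores were corrected for input abundance and mapped to Kd with protein pairs of known affinity run in the same pool. The assay was run in three technical replicates.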

Variants are written as CDR1, CDR2 and CDR3 of the light chain (limits as in the source). Parent: KSSQSVLYESRNKNSVA, WASTRES, QQYHRLPLS.
This list gathers variants with a substitution at A57 (VL, numbered from residue 1).
Numbers give log10(Kd / nM), so 0 is 1 nM and 3 is 1 µM. Smaller is tighter.
A pair that was not seen in that replicate is written "ND"; this usually means weak binding, but a binder can also be missed.
For reference, the parent read 0.65 as the reference entry and 1.68 as a member of this library.
Empty control strains, which show no peptide, gave a signal in 18% of pairings with library AAYL50; the median was 4.19 and 95% of these signals were weaker than 2.99. No background was subtracted.

For KSSQSVLYESRNKNSVA | WDKTRES | QPYHRLPLS, the assay gave ND, ND, ND. Variant KSSQSVLYESRNKNSVM | WYSTTES | QQYHRLPLS showed ND, ND, ND. Variant KSSQSVLYESRNKNSVA | WFVTRES | QQYHRYPLS gave ND, 5.76, ND. With KSSQSGLYESRNKNSVA | WPSTRTS | QQYHRLPLS the result was ND, ND, ND. Variant KSSGSVLYESRNKNSVA | WNSTRES | QQYHRLPLS showed 3.36, 4.66, ND. With KSSQSVDYESRNKNSVA | WDSTRES | DQYHRLPLS the result was 2.22, 2.97, ND. For KSSQSVLYELRNKNSVA | WTSTRES | QQYHRFPLS, the assay gave 3.95, 2.70, 3.60.

With KSSQSVLYEFRNKNSVA | WESTRES | QQYHRLPGS the result was ND, ND, ND. With KSSQSVRYESRNKNSVA | WDSTRES | QQYHRLPLS the result was 1.85, 2.15, 2.13. With KSSQSVLYESRNKNSVA | WHSTAES | QQYHRLSLS the result was ND, ND, ND. Variant KSSQSVLYESREKNSVA | WKSTHES | QQYHRLPLS gave ND, 3.45, ND. Variant KSSQSVLYESRNKNSGA | WDSTRES | QQYKRLPLS gave ND, ND, ND. Variant KSSQSVLYESRNKNSVA | WRSTRES | QQYHRLNLS gave ND, ND, 2.07. For KMSQSVLYESRNKNSVA | WYSTYES | QQYHRLPLS, the assay gave ND, ND, ND.

Variant KSSMSVLYESRNKNSVA | WMSTRES | QQYHRLPKS showed ND, 4.10, ND. With KGSQSVLYESRNKNSVA | WDSTRNS | QQYHRLPLS the result was 2.81, 3.04, ND. With KSSQSVLYESRNKNSVA | WMSTRIS | QQYHNLPLS the result was 3.32, ND, ND. For KSSQSVLYESRNKHSVA | WYSTRES | QQYRRLPLS, the assay gave ND, ND, ND. With KSSQSVLYESHNKNSVA | WLSTREC | QQYHRLPLS the result was ND, ND, ND. For KSSQSVLYESRNKNSVA | WFSTRER | QQRHRLPLS, the assay gave 4.24, 3.24, ND. Variant KSSQSVLYESRNKNSVA | WNSTRES | QQYHRTPLS gave ND, ND, 4.31.

Variant LSWQSVLYESRNKNSVA | WSSTRES | QQYHRLPLS showed 4.36, 3.76, ND. Variant KSSQSVLYESRNKNSVA | WISTRES | QQYERYPLS showed 5.78, 3.36, 6.26. With KWSQSVLYESRSKNSVA | WSSTRES | QQYHRLPLS the result was 1.90, 1.98, 2.17. Variant KSSQWVLYESRNKNSVA | WKSTRES | QQHHRLPLS showed ND, ND, 4.82. With KSSQSVLYESRNKNSVA | WGSTRES | QQYHRLPLS the result was 1.63, 1.80, 1.79. With KSSQSVLYPSRNKNSVA | WQSTRES | QQYCRLPLS the result was 2.18, 2.03, 2.96. With KSSQSVLYESRNKNSVA | WESSRES | CQYHRLPLS the result was ND, ND, ND.

For KSSQSVLYESRNKNPVA | WNSTRES | QAYHRLPLS, the assay gave ND, 3.63, ND. With KSSQSQLYESRNKNSVA | WTSTRES | QQYHRLPLS the result was 0.68, 0.86, 0.92. With KSSQSVKYEWRNKNSVA | WRSTRES | QQYHRLPLS the result was 4.60, 3.02, ND. For KTSQSVCYESRNKNSVA | WDSTRES | QQYHRLPLS, the assay gave ND, 5.61, ND. Variant KSSQSVLYESRNKNSVA | EPSTRES | QQYHRCPLS gave 3.63, 3.03, ND. Variant KSSQSVLYESRNKNSVN | WSSTRES | QQYHRLVLS showed 3.62, ND, 3.84. With KSSQSVLYESRNKNSVA | WKSTRES | QQYHRLPLS the result was 2.02, 2.07, 2.74.

Variant KSSQSVLYESRNKNSVS | WDSTRES | QQDHRLPLS gave 4.17, ND, ND. Variant KSSQSVLYESRNKNSVA | WMSTRHS | QMYHRLPLS gave ND, ND, ND. With KSSQSVLRESRNKNSVA | WLSTRES | QQVHRLPLS the result was ND, ND, ND. Variant KSSQSVLYESRNKNSVA | WPSTRES | QQYHRLPLS gave ND, ND, ND. For KSSQSVLYESRNKNSVA | WPSTRES | NQYHRLPLS, the assay gave ND, 4.00, ND. With KSSQSVLYESRNKNSVA | WELTREG | QQYHRLPLS the result was 4.02, ND, ND. With KSSQSVLRESTNKNSVA | WTSTRES | QQYHRLPLS the result was 2.61, ND, ND.

Variant KSSQSVLYESRNKNSVA | WKPMRES | QQYHRLPLS gave ND, ND, ND. Variant KSSQSVLYESRFKNAVA | WTSTRES | QQYHRLPLS showed 2.29, 2.01, 1.89. Variant KSSQSVLYESRNKNSWA | WESTRES | QQYHRLPLS gave 3.33, 2.57, 2.02.

The opening 2 entries, copied out:

CDR-L1	CDR-L2	CDR-L3	log10 Kd (nM) by replicate
KSSQSVLYESRNKNSVA	WDKTRES	QPYHRLPLS	ND, ND, ND
KSSQSVLYESRNKNSVM	WYSTTES	QQYHRLPLS	ND, ND, ND

Reference: Engelhart et al. 2022, doi:10.1038/s41597-022-01779-4. File: FLAb, binding data.